Test results reported in publication PMC9934367, “Functional impact of subunit composition and compensation on Drosophila melanogaster nicotinic receptors–targets of neonicotinoids” (PLOS Genetics, 2023).

Assays:
D. melanogaster nAChRs = test: Comparison of agonist activity between nAChRs expressed in X. laevis oocytes (one-way ANOVA, Kruskal-Wallis); type: cell-based; details: Dα3/Dβ1 vs Dα1/Dβ1 nAChR
Description: We minimised the use of X. laevis according to the UK Animals (Scientific Procedures) Act, 1986. […] Oocytes were defolliculated after collagenase treatment in Ca^2+-free standard oocyte saline (Ca^2+-free SOS). cRNAs of the nAChR subunits and co-factors mixed at a concentration of 0.1 mg/mL was injected into oocytes at a volume of 50 nL. Then the oocytes were incubated in the incubation medium (SOS supplemented with sodium pyruvate (Nacalai Tesque, #13058–12), penicillin-streptomycin (MilliporeSigma, #P4333), gentamycin (Nacalai Tesque, #16672–04), and 4% horse serum (Thermo Fisher Scientific, #26050–070) for 3−4 days prior to electrophysiology.
Each defolliculated X. laevis oocyte was secured in a Perspex recording chamber and perfused with the standard oocyte saline (SOS) containing 0.5 μM atropine (SOSA) at a flow rate of 7−10 mL/min [48]. Two glass electrodes filled with 2 M KCl were impaled into each oocyte and the membrane potential was clamped at -100 mV. […] The peak amplitude of the response was measured and analysed by pCLAMP (Molecular Devices, USA).
Y=Imax/1+10^(logEC50‐X)nH
Where Y is the normalised response, X is log[ligand (M)], EC50 is the half maximal concentration (M), Imax is the maximum normalised response and nH is the Hill coefficient.
Prism software was employed for the statistical analyses. […]

D. melanogaster = details: in vivo; cited from earlier work

Compound: O=[N+]([O-])NC1=NCCN1Cc1ccc(Cl)nc1 [Imidacloprid, imidacloprid]
- EC50 value for the Dα3/Dβ1 nAChR lower than that for the Dα1Dβ1 nAChR (D. melanogaster nAChRs): 14.4 fold
- resistance level, effect of double knockouts (D. melanogaster): reduced
